ClpP mod – qHTS Assay for Activators of ClpP; ATP-dependent Clp protease proteolytic subunit (Bacillus subtilis (strain 168)), P80244; purified B. subtilis ClpP, FRET peptide cleavage, 20 min; Potency, µM (top dose mostly 57.5 µM), inactives show at the highest dose activity change, negative = active; 1.9% of 340,000 active; AID 651965, 2013; active = well fitted falling curve with a large enough effect; inconclusive = small, poorly fitted or top-dose-only effect; inactive = no such curve, though single readings can be large or run the other way; note: potency is the fitted concentration of half-maximal effect; the source files actives as falling curves though it sought activators and does not explain the sign; nearly all actives have a fitted effect of over 65% in size
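FRET quenching reversal measured ClpP activation: 10 microg/mL B. subtilis ClpP at pH 8 with the FRET-FV decapeptide, read at 430 nm after 320 nm excitation. The 20-min minus 0-min signal was scaled between DMSO/no-enzyme wells and ADEP (5.8 microM final).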
Nrf2 inh – Nrf2 pathway inhibition | AID 504444 | Potency, µM (titrated, usually from 46 µM), for the others: at the top dose activity change, negative = inhibition, hits mostly inhibitors | 2.1% of 360,000 active | A549 ARE-Fluc reporter, luciferase luminescence, 18-24 h; note: potency is the fitted concentration of half-maximal effect; % is set by controls: 0 for no effect and ±100 for the full control effect; nearly all actives have a fitted effect of over 60% in size
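Cells were seeded and rested 2 h, then exposed to compounds for 18-24 h. CellTiter-Fluor was read first as a viability measure. BugLite was added 15 min before the final luminescent read of ARE-luciferase activity in A549 cells.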
IL2 activator – activates IL-2 in a cell-based reporter assay. IL-2 activation reporter assay, cell-based qHTS; stimulated with anti-CD3/CD4/CD28 beads; in transgenic mouse T cells. activation, % (series mostly up to about 46 µM). 0.065% of 360,000 active; in the data active = activation above about 50%; inconclusive = mostly about 30% to 49%; note: 0% is about no effect
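Unstimulated transgenic mouse T cells; 60-min compound exposure; bead-based TCR/CD4/CD28 stimulation; 18 h culture, 37 degrees C; dual fluorescence (EGFP, DsRed) plate cytometry.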
A549 tox – counter-screen for Nrf2 inhibitors: cytotoxicity in A549 cells; A549 ARE-Fluc cells, CellTiter-Fluor viability, 18-24 h; Potency, µM (doses to about 46 µM), without a hit: top-dose activity change, negative = cytotoxicity, usual class: inhibitors; 0.16% of 390,000 active; AID 504648; note: potency is the fitted concentration of half-maximal effect; % is set by controls: 0 for no effect and ±100 for the full control effect
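A549 ARE_Fluc cells in 5% FBS OPTI-MEM were exposed to compounds in concentration-response for 18-24 h at 37 deg C. Viability was read by CellTiter-Fluor fluorescence (Ex 405/Em 525) after 30 min, before the luciferase read.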
miR-21 reporter – raises the signal of a miR-21 reporter; Potency, µM (doses to about 38.3 µM), inactives show top-dose reporter change, positive = more light; HeLa miR-21 FLuc reporter, luciferase, 48 h; AID 2288; 340,000 tested, under 10 active; active = well fitted rising curve with a large enough effect; inconclusive = small, poorly fitted or top-dose-only effect; inactive = no such curve, though single readings can be large or run the other way;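 further: % of control where 0% means no effect; miR-21 action dims this reporter so a rising signal means less miR-21 action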
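Luminescence from a firefly luciferase reporter carrying a miR-21 binding site downstream, stably expressed under a CMV promoter in HeLa cells that make miR-21 endogenously, reports miRNA modulation after 48 h compound exposure up to approximately 40uM final.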
Nrf2 activator – activators of Nrf2 (ARE) signaling | AREc32 ARE-luciferase reporter (MCF7-derived line), luminescence, 24 h | 0.31% of 410,000 active | Potency, µM (doses to about 46.1 µM), for the others: at the highest dose activation, most hits filed as activators; note: potency is the fitted concentration of half-maximal effect; % of control where 0% means no effect; nearly all actives have a fitted effect of over 65% in size
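Luminescent ARE reporter assay in AREc32_Fluc cells: overnight plating at 37 deg C, 24 hr compound incubation, Steady-Glo added, 30 min RT before reading.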
The depositor's hits bear a star. The list is not random: actives were taken first. Their share in the collection is about 3.7%. Unless noted, calls come from the whole dose curve; as a rule, active = well fitted curve in the direction sought with a large enough effect; inconclusive = small, poorly fitted or top-dose-only effect, or another doubt; inactive = no such curve, though single readings can be large; an effect the other way counts as inactive or inconclusive.

What do the screens show for `COC(=O)c1ccccc1NC(=O)NC1CCN(Cc2ccccc2)CC1`?
ClpP mod: 28µM*; Nrf2 inh: -7%; IL2 activator: -1; A549 tox: 9%; miR-21 reporter: -4%; Nrf2 activator: 0%

How did CCN1CCC(NC(=O)Nc2ccccc2C(=O)OC)CC1 do in these assays?
ClpP mod: inconclusive; Nrf2 inh: 8%; IL2 activator: 0; A549 tox: inconclusive; miR-21 reporter: -16%; Nrf2 activator: 0%

Results for COc1cccc(CNC(=O)CCNS(=O)(=O)c2ccc3c(c2)CCCC(=O)N3)c1 ?
ClpP mod: 2%; Nrf2 inh: -15%; A549 tox: -3%; miR-21 reporter: 2%; Nrf2 activator: 1%

Results for Oc1ccccc1/C=N/Nc1nccnc1Cl ?
ClpP mod: 0%; Nrf2 inh: inconclusive; IL2 activator: 0; A549 tox: -17%; miR-21 reporter: -27%; Nrf2 activator: 6%

How did O=[N+]([O-])c1ccccc1/C=N/Nc1nccnc1Cl do in these assays?
ClpP mod: -1%; IL2 activator: 1; A549 tox: 0%; miR-21 reporter: -52%; Nrf2 activator: 6.3µM*

What do the screens show for `CC1Cc2ccccc2N1C(=O)CSc1nc2ccc(NC(=O)COc3ccccc3)cc2s1` (stereo unspecified)?
ClpP mod: -3%; Nrf2 inh: inconclusive; A549 tox: 1%; miR-21 reporter: 16%; Nrf2 activator: 0%

What do the screens show for `COc1ccc(-c2noc(CSCC(=O)Nc3cc(OC)c(OC)c(OC)c3)n2)cc1OC`?
ClpP mod: 4%; Nrf2 inh: 2%; A549 tox: -2%; miR-21 reporter: -2%; Nrf2 activator: -1%

How did CCOCCc1nn2c(=O)cc(COC(=O)c3ccccc3NC(=O)CC(C)C)nc2s1 do in these assays?
ClpP mod: -21%; A549 tox: 1%; miR-21 reporter: -9%; Nrf2 activator: 8%

Results for CC(OC(=O)CCN=C1NS(=O)(=O)c2ccccc21)C(=O)Nc1ccc(F)c(F)c1F (stereo unspecified) ?
ClpP mod: 32µM*; Nrf2 inh: -3%; IL2 activator: 0; A549 tox: 16%; Nrf2 activator: 0%

What do the screens show for `COC(=O)c1ccc(Cn2cnc3c(cnn3-c3ccc(F)cc3)c2=O)o1`?
ClpP mod: -3%; Nrf2 inh: 2%; IL2 activator: 0; A549 tox: -1%; miR-21 reporter: 1%; Nrf2 activator: 0%

Results for COC(=O)c1ccc(Cn2cnc3c(cnn3-c3ccc(C)c(C)c3)c2=O)o1 ?
ClpP mod: -18%; Nrf2 inh: 23µM*; IL2 activator: 0; A549 tox: -15%; miR-21 reporter: -4%; Nrf2 activator: 0%

How did COc1cc(NC(=O)C(OC(=O)CNC(=O)c2ccccc2)c2ccccc2)cc(OC)c1 (stereo unspecified) do in these assays?
Nrf2 inh: -18%; A549 tox: -3%

Results for Cc1c(C#N)c(=O)oc2ccc3ccccc3c12 ?
ClpP mod: 7.9µM*; Nrf2 inh: 0%; IL2 activator: 2; A549 tox: 3%; miR-21 reporter: -2%; Nrf2 activator: 0%

How did CCCC(c1nnnn1CCc1ccccc1)N1CCC(C(N)=O)CC1 (stereo unspecified) do in these assays?
ClpP mod: -2%; Nrf2 inh: -10%; IL2 activator: -2; A549 tox: 7%; miR-21 reporter: -8%; Nrf2 activator: 0%

What do the screens show for `CCCC(c1nnnn1CCc1ccccc1)N1CCN(C2CCCC2)CC1` (stereo unspecified)?
ClpP mod: 0.79µM*; Nrf2 inh: -16%; IL2 activator: -2; A549 tox: -3%; miR-21 reporter: -2%; Nrf2 activator: 0%

How did Cc1ccc(Cl)cc1N1CCN(Cc2nc3c(c(=O)[nH]c(=O)n3C)n2Cc2ccccc2F)CC1 do in these assays?
ClpP mod: 0%; Nrf2 inh: 18µM*; IL2 activator: -2; A549 tox: -7%; miR-21 reporter: -1%; Nrf2 activator: -4%

What do the screens show for `Cc1ccccc1Cn1c(CN2CCN(c3cc(Cl)ccc3C)CC2)nc2c1c(=O)[nH]c(=O)n2C`?
ClpP mod: 0%; Nrf2 inh: 3%; A549 tox: 2%; miR-21 reporter: 4%; Nrf2 activator: 0%

What do the screens show for `CC1Cc2ccccc2N1C(=O)CN1CCC(n2nnc3cc(C(F)(F)F)ccc32)CC1` (stereo unspecified)?
ClpP mod: -1%; Nrf2 inh: 16µM*; IL2 activator: -3; A549 tox: inconclusive; miR-21 reporter: inconclusive; Nrf2 activator: 4%

How did CSc1cccc(NC(=O)CSc2ncccc2C(=O)Oc2cccc([N+](=O)[O-])c2)c1 do in these assays?
ClpP mod: -1%; Nrf2 inh: 21%; IL2 activator: 1; A549 tox: -2%; miR-21 reporter: -19%; Nrf2 activator: 4%

What do the screens show for `CCC(Sc1ncccc1C(=O)Oc1cccc([N+](=O)[O-])c1)C(=O)Nc1ccccc1OC` (stereo unspecified)?
ClpP mod: 35µM*; Nrf2 inh: 10%; IL2 activator: 1; A549 tox: 14%; miR-21 reporter: -4%; Nrf2 activator: 0%

What do the screens show for `COc1ccc(-n2c(-c3ccc(F)cc3)cn3c4c(=O)n(C)c(=O)n(C)c4nc23)cc1`?
ClpP mod: 2%; Nrf2 inh: 7%; A549 tox: -6%; miR-21 reporter: -3%; Nrf2 activator: 0%

How did O=C1[C@H](Cc2ccccc2)NC/C=C\C[C@H](c2ccc(Cl)cc2)N1Cc1ccc(Cl)cc1 do in these assays?
ClpP mod: -2%

What do the screens show for `c1ccc(-c2nc(-n3ccnc3)nc(-n3ccnc3)n2)cc1`?
ClpP mod: 0%; Nrf2 inh: inconclusive; IL2 activator: -1; A549 tox: -20%; miR-21 reporter: 16%; Nrf2 activator: 10%

What do the screens show for `c1ccc(CN2CCN(c3nc(-c4ccccc4)nc(-n4ccnc4)n3)CC2)cc1`?
ClpP mod: 0%; Nrf2 inh: 15µM*; IL2 activator: -1; A549 tox: -30%; miR-21 reporter: 9%; Nrf2 activator: 0%

Results for c1ccc(N(c2ccccc2)c2nc(N3CCCC3)nc(-n3ccnc3)n2)cc1 ?
ClpP mod: -14%; Nrf2 inh: 23µM*; IL2 activator: -3; A549 tox: inconclusive; miR-21 reporter: 1%; Nrf2 activator: -1%

Among those listed so far, these have an aryl thioether with sulfur outside any ring:
What do the screens show for `CC1Cc2ccccc2N1C(=O)CSc1nc2ccc(NC(=O)COc3ccccc3)cc2s1` (stereo unspecified)?
ClpP mod: -3%; Nrf2 inh: inconclusive; A549 tox: 1%; miR-21 reporter: 16%; Nrf2 activator: 0%

How did CSc1cccc(NC(=O)CSc2ncccc2C(=O)Oc2cccc([N+](=O)[O-])c2)c1 do in these assays?
ClpP mod: -1%; Nrf2 inh: 21%; IL2 activator: 1; A549 tox: -2%; miR-21 reporter: -19%; Nrf2 activator: 4%

What do the screens show for `CCC(Sc1ncccc1C(=O)Oc1cccc([N+](=O)[O-])c1)C(=O)Nc1ccccc1OC` (stereo unspecified)?
ClpP mod: 35µM*; Nrf2 inh: 10%; IL2 activator: 1; A549 tox: 14%; miR-21 reporter: -4%; Nrf2 activator: 0%

High-throughput results: PubChem BioAssay, National Center for Advancing Translational Sciences (NCATS)
